Source: publication PMC8877905, “Novel Cocrystals of Vonoprazan: Machine Learning-Assisted Discovery” (Pharmaceutics, 2022)

Test: Equilibrium solubility in pH 1.2 and pH 6.8 solutions, 37 °C, 24 h, HPLC
Assay type: physicochemical
Conditions: for Solubility in pH 1.2 buffer, Concentration: Figure 7a; for Solubility in pH 6.8 buffer, Concentration: Figure 7b; for Equilibrium Solubility after 24 h in pH 6.8: pH 6.8 solution, 37 °C, VPZ concentration by HPLC
Experimental: Excess amounts (~500 mg) of powder samples were added to 10 mL of pH 1.2 solution and 30 mL of pH 6.8 solution. […] After 24 h, aliquots of 2.5 mL were withdrawn from the suspension using a 0.45 μm nylon syringe filter and diluted immediately, followed by analysis of the VPZ concentration by HPLC.
The VPZ concentration was measured using an HPLC system (UFLC; Shimadzu) with a diode array detector and Shim-pack GIS-ODS C18 column (4.6 × 250 mm, 5 μm). HPLC analysis was conducted at a column oven temperature of 40 °C with a flow rate of 1 mL/min, and the mobile phase was a mixture of 20 mM ammonium formate in water (pH 3.05) and HPLC-grade MeOH with the addition of 10 mM triethylamine (TEA) (80% : 20%, v/v). The volume of the injected samples was 10 μL and the VPZ content was assayed spectrophotometrically at a wavelength of 245 nm.

Substance | Solubility in pH 1.2 buffer, Concentration | Solubility in pH 6.8 buffer, Concentration | Equilibrium Solubility after 24 h in pH 6.8 [mg/mL]
Vonoprazan–pyrogallol [VPZ-GAL] | 16,349 μg/mL | 1,846 μg/mL | 1.85 ±0.31
Vonoprazan–resorcinol [VPZ-RES] | 22,684 μg/mL | 5,740 μg/mL | 5.74 ±0.13
